# Measured values from PMC11405395 (The EMBO Journal, 2024).
# B1: Homo sapiens RTEL1 (wild-type, FLAG-tagged) (enzyme, human, UniProt Q9NZ71-1 1-1219, looked up)
# chain: MPKIVLNGVTVDFPFQPYKCQQEYMTKVLECLQQKVNGILESPTGTGKTLCLLCTTLAWREHLRDGISARKIAERAQGELFPDRALSSWGNAAAAAGDPIACYTDIPKIIYASRTHSQLTQVINELRNTSYRPKVCVLGSREQLCIHPEVKKQESNHLQIHLCRKKVASRSCHFYNNVEEKSLEQELASPILDIEDLVKSGSKHRVCPYYLSRNLKQQADIIFMPYNYLLDAKSRRAHNIDLKGTVVIFDEAHNVEKMCEESASFDLTPHDLASGLDVIDQVLEEQTKAAQQGEPHPEFSADSPSPGLNMELEDIAKLKMILLRLEGAIDAVELPGDDSGVTKPGSYIFELFAEAQITFQTKGCILDSLDQIIQHLAGRAGVFTNTAGLQKLADIIQIVFSVDPSEGSPGSPAGLGALQSYKVHIHPDAGHRRTAQRSDAWSTTAARKRGKVLSYWCFSPGHSMHELVRQGVRSLILTSGTLAPVSSFALEMQIPFPVCLENPHIIDKHQIWVGVVPRGPDGAQLSSAFDRRFSEECLSSLGKALGNIARVVPYGLLIFFPSYPVMEKSLEFWRARDLARKMEALKPLFVEPRSKGSFSETISAYYARVAAPGSTGATFLAVCRGKASEGLDFSDTNGRGVIVTGLPYPPRMDPRVVLKMQFLDEMKGQGGAGGQFLSGQEWYRQQASRAVNQAIGRVIRHRQDYGAVFLCDHRFAFADARAQLPSWVRPHVRVYDNFGHVIRDVAQFFRVAERTMPAPAPRATAPSVRGEDAVSEAKSPGPFFSTRKAKSLDLHVPSLKQRSSGSPAAGDPESSLCVEYEQEPVPARQRPRGLLAALEHSEQRAGSPGEEQAHSCSTLSLLSEKRPAEEPRGGRKKIRLVSHPEEPVAGAQTDRAKLFMVAVKQELSQANFATFTQALQDYKGSDDFAALAACLGPLFAEDPKKHNLLQGFYQFVRPHHKQQFEEVCIQLTGRGCGYRPEHSIPRRQRAQPVLDPTGRTAPDPKLTVSTAAAQQLDPQEHLNQGRPHLSPRPPPTGDPGSQPQWGSGVPRAGKQGQHAVSAYLADARRALGSAGCSQLLAALTAYKQDDDLDKVLAVLAALTTAKPEDFPLLHRFSMFVRPHHKQRFSQTCTDLTGRPYPGMEPPGPQEERLAVPPVLTHRAPQPGPSRSEKTGKTQSKISSFLRQRPAGTVGAGGEDAGPSQSSGPPHGPAASEWGL
# notes: RTEL1, human; the models and residue numbers are of isoform 1 (NP_057518.1), printed to residue 1219; Plasmid pTD195; The isoform is printed for the AlphaFold models; the deletion mutants use the same numbering; also called hsRTEL1; RTEL1-2FLAG; source: S. cerevisiae strain yOO1, purified (anti-FLAG M2 resin, HiLoad Superdex 200); not shown: 2XFLAG, C-terminal, kept
# Molecular target: T1, Homo sapiens DNA polymerase ε (POLE1, POLE2, POLE3, POLE4) (human, UniProt Q07864 1-2286; P56282 1-527; Q9NRF9 1-147; Q9NR33 1-117)
# T1 construct: POLE1 (catalytic subunit of DNA polymerase ε), human; POLE2 (homologue of budding yeast Dpb2), human (PolE2_tev_2XFLAG; tag removed with TEV protease); POLE3, human; POLE4, human; The methods call the removed tag 3FLAG, the strain and plasmid 2XFLAG; also called hsPOL ε; POL ε; source: S. cerevisiae strain ySP061, purified (anti-FLAG M2 resin, TEV cleavage, MonoQ, Superdex 200); not shown: …
# Test: co-IP; purified proteins mixed: 10 nM RTEL1-FLAG with 15 nM hsPol ε, 10 min on ice; anti-FLAG M2 magnetic beads; 25 mM Hepes-KOH pH 7.6, 200 mM KOAc, 0.02% NP-40-S, 0.1 mg/mL BSA, 1 mM DTT, 10 mM Mg(OAc)2; immunoblotting
# Details: both partners purified
binder,measurement,value
B1,binding result,binds
